From PubChem BioAssay AID504692 (The Scripps Research Institute Molecular Screening Center, 2011) come the findings set out here.

The chains behind the UniProt entries cited, without tags or fusion partners.
UniProt P47898, whole entry, looked up: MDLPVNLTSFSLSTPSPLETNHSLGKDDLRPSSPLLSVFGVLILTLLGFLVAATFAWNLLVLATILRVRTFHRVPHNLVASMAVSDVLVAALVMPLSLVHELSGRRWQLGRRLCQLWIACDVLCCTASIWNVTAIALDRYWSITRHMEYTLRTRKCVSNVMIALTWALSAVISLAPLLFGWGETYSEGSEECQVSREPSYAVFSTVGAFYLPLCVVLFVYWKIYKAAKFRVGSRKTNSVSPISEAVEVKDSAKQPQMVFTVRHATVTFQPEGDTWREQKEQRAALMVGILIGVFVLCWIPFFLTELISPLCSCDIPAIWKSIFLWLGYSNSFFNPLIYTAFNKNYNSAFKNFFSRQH

Each structure is given as a SMILES string. Values joined by “and” are separate entries in the source; they are usually repeats but may differ in a detail not shown here. Equal entries are not always repeated. The entries are a selection whose mix differs from that of the whole data set. Active and inactive are the calls of the source. No stated cut-off is given here; in the data, active means activation mostly above about 9.5% (no sharp cut-off); inactive means mostly below about 7.6%.

In the experiment the target is 5-hydroxytryptamine receptor 5A (Homo sapiens) (UniProt P47898). The experiment is described as follows: HTR5A agonists in luminescence cell assay, primary screen, counter-screen for OPRM1-OPRD1 heterodimer agonist project, full-deck HTS (AID 504692).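 Further: 0% = cells with vehicle only and 100% = reference agonist.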 The note with it: cell-based, at 9.3 µM, hits give high values. For orientation: Counterscreens check selectivity or assay interference.
`CCN(CC)CCn1c(NCc2ccc3c(c2)OCO3)nc2ccccc21`: the activation is inactive: -0.36%.

`O=C(NCc1ccccc1)N1CCn2c(nc3ccccc32)C1`: the activation is inactive: 0.33%.

As for `CC(NC(=O)[C@H](C)NC(=O)N1CCn2c1nc1ccccc12)c1ccccc1` (stereo not given in full), the activation was inactive: 1.78%.

With `O=C1Nc2ccccc2C12Nc1ccccc1-c1nc3ccccc3n12` (stereo not given), the activation is inactive: 5.31%.

Turning to `Cc1ccccc1OCC(O)Cn1c(=N)n(CCN2CCOCC2)c2ccccc21` (stereo not given), the activation is inactive: -1.56% and inactive: 2%.

On to `Cc1ccccc1NC(=O)Cn1c(=O)n(C)c2ccccc21`, for which the activation is inactive: 4.16%.

Consider `C[C@H](NC(=O)N1CCn2c1nc1ccccc12)C(=O)NCc1ccco1`, for which the activation is inactive: -1.61%.

As to `O=C(Nc1ccc(F)cc1)N1CCn2c(nc3ccccc32)C1`, the activation is inactive: -1.25%.

Turning to `CN1CCC(N(C)c2nc(-c3ccc([N+](=O)[O-])cc3)nc3ccccc23)CC1`, the activation is inactive: 9.65%.

Take `Cc1ccc2c(c1)C1CN(C)CCC1N2S(=O)(=O)c1ccccc1F` (stereo not given): the activation is inactive: -1.05%.

As to `N=c1n(CCCOc2ccc(Br)cc2)c2ccccc2n1CC(N)=O`, the activation is inactive: -1.05%.

Turning to `O=C(Cn1c2[n+](c3ccc(C(F)(F)F)cc31)CCCCC2)Nc1ccc(Br)cc1`, the activation is inactive: -3.34%.

`CC(O)c1nc2ccccc2n1CC(=O)Nc1ccc(F)cc1Cl` (stereo not given): the activation was inactive: 5.67%.

For `COc1ccc(NC(=O)Cn2c(NCC(C)O)nc3ccccc32)cc1Cl` (stereo not given), the activation is inactive: -2.46%.

As for `CC(C)CN(C(=O)Cn1c(Cl)nc2c1c(=O)n(C)c(=O)n2C)C1CCS(=O)(=O)C1` (stereo not given), the activation was inactive: -1.07%.

Consider `COc1ccc(CCNC(=O)[C@H](CCSC)NC(=O)N2CCn3c2nc2ccccc23)cc1OC`, for which the activation is inactive: -3.98%.

Regarding `Cc1ccc2nc3c(c(C)c2c1)CC(C(Cl)Cl)S3` (stereo not given), the activation is inactive: -3.04%.

For the molecule `CSc1nc(N)nc2c1ncn2CC(=O)N[C@H](C)c1cccc2ccccc12`, the activation was inactive: 2.33%.

`CN(C)CCn1cnc2c1c(=O)n(C)c(=O)n2C`: the activation was inactive: -1.59%.

Take `COc1ccc(S(=O)(=O)N2CCCCC2)cc1NC(=O)Cn1cnc2c1c(=O)n(C)c(=O)n2C`: the activation was inactive: 1.93%.

Turning to `O=C(Cn1c(C(F)(F)F)nc2ccccc21)N/N=C/c1ccco1`, the activation is inactive: -2.69%.

With `Cn1c(=O)c2c(nc(N3CCOCC3)n2CCNC2=NCCC2)n(C)c1=O`, the activation was inactive: 1.06%.

Turning to `CCOC(=O)Cn1c(=O)c2c(nc3n2CCN3Cc2ccccc2)n(C)c1=O`, the activation is inactive: 1.05%.

Take `Fc1ccc2c(c1)nnn2C1CCN(Cc2ccccc2)CC1`: the activation is inactive: -1.04%.

Consider `Cc1ccc(OP(=O)(Nc2ccc([N+](=O)[O-])cn2)Oc2ccc(C)cc2)cc1`, for which the activation was inactive: 2.53%.

As for `COC(=O)[C@H](CCSC)NC(=O)Cn1cnc2c(NCc3ccccc3)ncnc21`, the activation is inactive: -0.15%.

As for `CC(Cc1ccc(O)cc1)NCC(O)c1cc(O)cc(O)c1` (stereo not given), the activation was inactive: 0.5%.

For the molecule `COc1ccc(/C=N/NC(=O)Cn2c(Cc3ccc(OC)c(OC)c3)nc3ccccc32)cc1`, the activation is inactive: 0.87%.

`Brc1ccc(CNc2nc3ccccc3n2CCN2CCCCC2)cc1`: the activation was inactive: -4.24%.

Regarding `Cc1ccc2c(c1)C1CN(C)CCC1N2S(=O)(=O)c1ccc(C#N)cc1` (stereo not given), the activation was inactive: -2.46%.

Consider `Cc1nn2c3ccccc3n(CCN3CCCCC3)c2nc1=O`, for which the activation is inactive: 0.44%.

On to `FC(F)(F)c1ccc2c(c1)ncn2C1CCN(Cc2nnnn2C2CCCCC2)CC1`, for which the activation was inactive: 1.29%.

As for `Nc1nc2ccccc2n1CCN1CCCC1`, the activation was inactive: -1.63%.

Consider `CC(C)NC(=S)N1CCn2c(nc3ccccc32)C1`, for which the activation was inactive: 1.72%.

In the case of `CC1Cc2ccccc2N1C(=O)CSc1nc2ccccc2n1CC(=O)N1CCOCC1` (stereo not given), the activation is inactive: 5.13%.

As for `O=C(CCCCCNC(=O)N1CCn2c1nc1ccccc12)NCc1ccc(Cl)cc1`, the activation was inactive: -5.08%.

Take `O=C(Cn1cnc2ccccc21)N/N=C/c1cccc([N+](=O)[O-])c1`: the activation was inactive: 0.67%.

Regarding `NC(=O)Nc1ccc([As](=O)(O)O)cc1`, the activation was inactive: 0.68%.

Regarding `O=C(Cn1cnc2c(NCc3ccccc3)ncnc21)NCCc1cc2ccccc2[nH]1`, the activation was inactive: -0.23%.

For the molecule `CCCCNC(=O)Cn1c(=O)n(C)c2ccccc21`, the activation was inactive: 2.46%.

On to `CCOC(=O)C1=C(Cn2cnc3ccccc32)NC(=O)NC1c1ccc(OC)cc1` (stereo not given), for which the activation is inactive: -3.41%.

For the molecule `Cc1nc2ccccc2n1C1CC(=O)N(N(C)C)C1=O` (stereo not given), the activation is inactive: 2.33%.

As for `CC(=O)Nc1nc2ccccc2n1CCN1CCOCC1`, the activation is inactive: 2.93%.

In the case of `Cc1cccc(C)c1NC(=O)Cn1cnc2c(=O)n(C)c(=O)n(C)c21`, the activation was inactive: 1.85%.

Regarding `CC(=O)OCCNC(=O)Cn1cnc2c1c(=O)n(C)c(=O)n2C`, the activation was inactive: 1.63%.

Regarding `CCC(C)NC(=O)Cn1c(COc2ccc(Cl)cc2Cl)nc2ccccc21` (stereo not given), the activation was inactive: 3.06%.

Regarding `Cn1c(=O)[nH]c(=O)c2c1ncn2CCN1CCOCC1`, the activation is inactive: -2.51%.

As for `CCC(C)[C@H](NC(=O)N1CCn2c1nc1ccccc12)C(=O)NCc1ccc(OC)cc1` (stereo not given in full), the activation is inactive: 2.79%.

Take `Cn1c(=O)c2c(ncn2CC(=O)N(Cc2ccccc2)c2ccccn2)n(C)c1=O`: the activation was inactive: -0.25%.

On to `O=C(Nc1nc2ccccc2n1CCN1CCCC1)C1CCCCC1`, for which the activation was inactive: 0.72%.

Take `CCN(CC)CCn1c(NCc2ccc(C)o2)nc2ccccc21`: the activation is inactive: 1.19%.

As to `Cc1ccc(C(=O)Nc2nc3ccccc3n2CCN2CCCC2)cc1`, the activation is inactive: 2.12%.

As for `CC1CCCCN1C(=O)Cn1cnc2c1c(=O)n(C)c(=O)n2C` (stereo not given), the activation was inactive: 3.5%.

For the molecule `O=[N+]([O-])c1ccc2c(c1)nnn2O`, the activation is inactive: -1.77%.

With `CN(C)C(=O)c1cc([N+](=O)[O-])cc2c1-c1c(cc([N+](=O)[O-])cc1[N+](=O)[O-])C2=O`, the activation is inactive: -1.97%.

In the case of `CCc1cccc(C)c1NC(=O)Cn1c(NCCO)nc2ccccc21`, the activation is inactive: -1.1%.

With `Cc1ccc2c(c1)C1CN(C)CCC1N2C(=S)NC(=O)c1ccc(Br)cc1` (stereo not given), the activation is inactive: -4.37%.

`CC(C)CN(C(=O)Cn1c(C(F)(F)F)nc2ccccc21)C1CCS(=O)(=O)C1` (stereo not given): the activation is inactive: 4.77%.

Regarding `CN(C(=O)Cc1ccc(Cl)c(Cl)c1)[C@H]1CC[C@@]2(CCCO2)C[C@@H]1N1CCCC1`, the activation was inactive: 6.98%.

Turning to `O=C(CSc1nc2ccccc2n1CC(=O)N1CCCC1)Nc1nccs1`, the activation is inactive: -3.57%.

Turning to `O=C(Cn1cnc2ccccc21)N/N=C/c1ccccc1[N+](=O)[O-]`, the activation is inactive: 0.95%.

On to `N#CCCN(C(=O)COC(=O)C(O)(c1ccccc1)c1ccccc1)c1ccc(F)cc1`, for which the activation is inactive: 0.74%.

As to `O=C(Nc1ccccc1)N1CCn2c1nc1ccccc12`, the activation is inactive: -4.58%.

For the molecule `COc1ccc(CNC(=O)[C@H](CCSC)NC(=O)N2CCn3c2nc2ccccc23)cc1`, the activation was inactive: 2.59%.

As for `CCOC(=O)c1ccc(N2C(=O)CC(N3CCC(Nc4ccc(F)cc4)CC3)C2=O)cc1` (stereo not given), the activation is inactive: -1.24%.

Consider `Cn1c(=O)c2c(nc(CN3CCN(c4ccccc4F)CC3)n2CCN2CCOCC2)n(C)c1=O`, for which the activation is inactive: -1.41%.

On to `CC(C)[C@H](NC(=O)N1CCn2c1nc1ccccc12)C(=O)NCc1ccco1`, for which the activation is inactive: 4.49%.

As to `Fc1ccc2c(c1)nnn2C1CCN(Cc2c(Cl)cccc2Cl)CC1`, the activation is inactive: 0.51%.

Regarding `CCOP1(=S)c2c(C)nn(CCC#N)c2N=C(c2ccc(F)cc2)N1C` (stereo not given), the activation was inactive: 7.52%.

For `CN(C(=O)Cc1ccccc1)[C@@H]1CC[C@]2(CCCO2)C[C@H]1N1CCCC1`, the activation is inactive: -1.94%.

As to `CC(C(O)c1ccccc1)N(C)CCn1cnc2c1c(=O)n(C)c(=O)n2C` (stereo not given), the activation was inactive: 0.83%.

`C[C@H](NC(=O)N1CCn2c1nc1ccccc12)C(=O)NCc1ccc2c(c1)OCO2`: the activation is inactive: 3.32%.

`CCN(CC)CCn1c(=N)n(CC(O)COc2ccccc2)c2ccccc21` (stereo not given): the activation is inactive: -0.84%.

Regarding `CCN(Cc1ccccc1)C(=O)Cn1cnc2c1c(=O)n(C)c(=O)n2C`, the activation is inactive: -1.34%.

For the molecule `COC(=O)[C@H](CCSC)NC(=O)Cn1cnc2c(SC)nc(N)nc21`, the activation is inactive: -6.74%.

`CN(C)C(=O)Cn1c(SCC(=O)N2CCCc3ccccc32)nc2ccccc21`: the activation was inactive: 6.98%.

Take `O=C1NCN(c2ccccc2)C12CCN(c1nnnn1-c1ccccc1)CC2`: the activation was inactive: 1.27%.

As for `Cc1ccc(/C=N\NC(=O)Cn2c(C)nc3ccccc32)o1`, the activation was inactive: -5.19%.

With `Cn1c(=O)c2c(ncn2CC(=O)Nc2ccc3c(c2)OCO3)n(C)c1=O`, the activation is inactive: 1.97%.

As to `CS(=O)(=O)c1cc([N+](=O)[O-])c2no[n+]([O-])c2c1`, the activation was inactive: -3.73%.

In the case of `O=C(Cn1cnc2ccccc21)N1CCc2ccccc21`, the activation is inactive: 2.97%.

With `Cn1c(=O)n(CC(=O)Nc2ccc(F)cc2)c2ccccc21`, the activation was inactive: 0.5%.

As for `CCOP1(=S)c2c(C)nn(CCC#N)c2N=C(c2ccccc2F)N1C` (stereo not given), the activation is inactive: 4.54%.

On to `CN(C(=O)Cn1c(Cl)nc2c1c(=O)n(C)c(=O)n2C)C1CCS(=O)(=O)C1` (stereo not given), for which the activation was inactive: -3.58%.

For `CCN1CCC(Nc2ccnc3cc(Cl)ccc23)CC1`, the activation was inactive: 3.44%.

In the case of `C/C(=N\NC(=O)Cn1c(-c2ccccn2)nc2ccccc21)c1cccc(O)c1`, the activation is inactive: -2.49%.

Take `N#Cc1ccc(NC(=O)Cn2c3[n+](c4ccc(C(F)(F)F)cc42)CCCCC3)cc1`: the activation was inactive: 1.86%.

As to `O=C(Nc1nc2ccccc2n1CCN1CCOCC1)c1ccc(Cn2cc([N+](=O)[O-])cn2)o1`, the activation is inactive: 2.85%.

Consider `CCC(C)[C@H](NC(=O)N1CCn2c1nc1ccccc12)C(=O)NCCc1ccc(OC)c(OC)c1` (stereo not given in full), for which the activation was inactive: -7.07%.

As for `Cc1ccccc1NC(=O)Cn1c(NCC(C)O)nc2ccccc21` (stereo not given), the activation is inactive: 2.98%.
